The source of these data is patent publication US20080058265.

Data set [1] deals with Cys-67-82 protein C.
The test system of data set [2] is wild-type protein C.

For thrombin, in data set [1], the “activation rate (rate of APC generation, amidolytic activity assay)” value is “The activation rate was 0.002 nM and 0.16 nM APC/nM thrombin for wild-type and mutant protein C, respectively”; the “fold improvement of activation by thrombin relative to wild-type protein C” value was “improved 60-80-fold”. In addition, in data set [2], the “activation rate (rate of APC generation, amidolytic activity assay)” value is “The activation rate was 0.002 nM and 0.16 nM APC/nM thrombin for wild-type and mutant protein C, respectively”.
